The source of these data is EP4725969A1, “ANTI-HER2 COMPLEMENTARY BISPECIFIC ANTIBODY-DRUG CONJUGATE, PREPARATION METHOD THEREFOR AND USE THEREOF” (priority 2023, dated 2024).

For data set [1], the system named is NCI-N87(R). As to the kind of experiment: Mouse subcutaneous xenograft model with acquired resistance to DS-8201, NCI-N87(R). The data set is classed as in vivo, BALB/c Nude mice. The note with it: DS-8201-resistant NCI-N87(R) model, 3 mg/kg, intravenous, four weeks.
For data set [2], the system named is HER2-low-expression breast cancer patients. Particulars: Modi et al. 2022, cited from earlier work.
Data set [3] deals with SKBR-3. Description: In vitro tumor cell-killing assay, SKBR-3. The note with it: SKBR-3, HER2-overexpressing, 3 to 5 days.
For data set [4], the system named is SKOV-3. The note with it: SKOV-3, HER2-overexpressing, 3 to 5 days.
The test system of data set [5] is NCI-N87. Description: In vitro tumor cell-killing assay, NCI-N87. The note with it: NCI-N87, HER2-overexpressing, 3 to 5 days.
Data set [6] relates to ZR-75-1. Description: In vitro tumor cell-killing assay, ZR-75-1. The note with it: ZR-75-1, HER2-low-expressing.
For data set [7], the system named is HER2-intermediate-expressing JIMT-1 breast cancer model. Description: Mouse subcutaneous xenograft model, JIMT-1. The note with it: JIMT-1 model, intravenous.
In data set [8] the test system is HER2-low-expressing RT-112 bladder cancer model. As to the kind of experiment: Mouse subcutaneous xenograft model, RT-112. The note with it: RT-112 model, intravenous.
Data set [9] relates to HER2-overexpressing NCI-N87 gastric cancer model. Description: Mouse subcutaneous xenograft model, NCI-N87. The note with it: intravenous.

For DS-8201, the “antitumor activity / tumor growth” value in data set [1] is “continued and stable growth”. Also, the response rate in [2] (HER2-low-expression breast cancer patients) was ~ 50%. Moreover, in data set [2], the “incidence of drug-related interstitial lung disease/pneumonia” value is recorded as 12.1%. Besides, the cell-killing activity entry in [3] is recorded as “potent cytotoxicity”; in [4], “potent cytotoxicity”; in [5], “potent cytotoxicity”; in data set [6], “almost no cytotoxic effect”. The “tumor growth inhibition compared to the vehicle control” value in data set [7], in data set [8] and in data set [9] was “significant tumor growth inhibition activities” each time.
